This test deals with Beta-1 adrenergic receptor (Homo sapiens, UniProt P08588). Briefly: Antagonist activity at human beta-1 adrenergic receptor site 1 expressed in cimeterol-stimulated CHO-K1 cells assessed as CRE-SPAP level by […]. It counts as functional, cell-based.

Amino acid sequences for entries named in this document (tags omitted).
UniProt P08588, whole entry: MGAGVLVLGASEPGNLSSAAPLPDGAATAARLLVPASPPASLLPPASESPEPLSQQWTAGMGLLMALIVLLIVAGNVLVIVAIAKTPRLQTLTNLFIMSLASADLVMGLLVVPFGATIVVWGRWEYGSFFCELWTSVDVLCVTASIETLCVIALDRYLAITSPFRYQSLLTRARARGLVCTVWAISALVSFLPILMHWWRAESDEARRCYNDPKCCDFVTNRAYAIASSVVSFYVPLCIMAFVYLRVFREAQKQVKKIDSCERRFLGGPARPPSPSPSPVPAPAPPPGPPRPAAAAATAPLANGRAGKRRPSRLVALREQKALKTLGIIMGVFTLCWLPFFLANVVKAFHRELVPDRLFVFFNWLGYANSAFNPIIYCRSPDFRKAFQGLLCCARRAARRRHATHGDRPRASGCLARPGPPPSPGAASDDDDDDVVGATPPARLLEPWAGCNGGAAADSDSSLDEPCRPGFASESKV

In the case of `C=CCc1ccccc1OCC(O)CNC(C)C` (stereo unspecified) [ALPRENOLOL], the Kd (commonly the concentration at which binding is half-saturated) was 4.27 nM.
